System: methemoglobinemia induced by sodium nitrite
Test: Sodium nitrite induced methemoglobinemia self-experiment, SpO2 and heart rate monitoring (Example 10)
Details: in vivo

sodium nitrite and citric acid
side effects: gastrointestinal distress, dizziness, brain fog, confusion, difficulty in breathing, migraine, abnormal heart palpitations
